{
  "source": "patent US20080305111A1",
  "about": "“Anti-C35 antibodies for treating cancer” (VACCINEX, INC., priority 2006, published 2008)",
  "system": "BT474 cells",
  "assay": "Cell proliferation assay (alamar blue), BT474",
  "type": "cell-based",
  "conditions": "antibodies at 150 μg/ml, day 6 of in vitro culture",
  "data": [
    {"substance": "Herceptin: anti-Her2/neu antibody, positive antibody control for Her2-positive tumor cell lines", "values": [
      {"measurement": "proliferation", "result": "inhibit proliferation of BT474"}
    ]}
  ]
}
